# Tested on: surface of the face
# Details: 1-2 ml of 10% aqueous solution applied to surface of the face
# Text: The present invention is based on the realization that the aging process and its physical effects on the skin and body involve the activation of a fibrinolytic process. […] The dosage of antifibrinolytic agent(s) should be less than 6 grams per day. […] A particularly advantageous manner of administration for topical delivery is by single use pre-impregnated towelettes applied to the area of the skin to be treated.
compound,measurement,value
NC[C@H]1CC[C@H](C(=O)O)CC1 [tranexamic acid],absorption of the liquid into the skin,almost immediately absorbed into the skin

# — patent publication US10792232B2, “Methods to deliver antifibrinolytic drugs for anti-aging results” (MURDOCK TECHNOLOGIES, LLC, priority 2016, dated 2020)
